# “And” between values parts separate entries of the source, which are not always exact repeats. Equal entries are not always repeated. Only a part is listed here, and it is no random draw.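 Each cell line was grown in a 96-well plate and treated with one concentration of compound for 48 hours. Values below 10 were considered active.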 The source made the active and inactive calls.
# Tested on: HCT-15 colon
# Assay: NCI-60 one-dose screen, 48 h (100 = growth as untreated, 0 = no growth, -100 = all killed)
# Conditions: 10 µM
row,SMILES,growth
1,NC(=NCCN/C(N)=N/[N+](=O)[O-])N[N+](=O)[O-],inactive: 97.1%
2,O=[N+]([O-])N(CCN(CC(Br)([N+](=O)[O-])[N+](=O)[O-])[N+](=O)[O-])CC(Br)([N+](=O)[O-])[N+](=O)[O-],inactive: 98.1%
3,CN(C)Nc1c([N+](=O)[O-])cc([N+](=O)[O-])cc1[N+](=O)[O-],inactive: 90%
4,O=[N+]([O-])OCCOc1ccc([N+](=O)[O-])cc1[N+](=O)[O-],inactive: 103%
5,N=C(N)N(N)[N+](=O)[O-],inactive: 102%
6,O=[N+]([O-])c1cc([N+](=O)[O-])c(C(F)(F)F)c([N+](=O)[O-])c1O,inactive: 102%
7,CCOC(=O)CSc1c(N)c(C)nn1C.O=[N+]([O-])c1cc([N+](=O)[O-])c(O)c([N+](=O)[O-])c1,inactive: 97.7%
8,O=[N+]([O-])c1ccc(OP2(=O)COCCO2)cc1 (stereo unspecified),inactive: 104%
9,CCN(C)CC.O=[N+]([O-])c1cc([N+](=O)[O-])c(O)c([N+](=O)[O-])c1,inactive: 104%
10,OCCSCCO,inactive: 96.6%
11,CC(C)N1CCN(CCOC(=O)C(O)(c2ccccc2)c2ccccc2)CC1,inactive: 104%
12,O=[N+]([O-])c1ccc(Oc2c([N+](=O)[O-])cc([N+](=O)[O-])cc2[N+](=O)[O-])cc1,inactive: 94.5%
13,O=C(Cl)c1c([N+](=O)[O-])cc([N+](=O)[O-])cc1[N+](=O)[O-],active: 5.41%
14,O=[N+]([O-])c1cc([N+](=O)[O-])c(Nc2ccc(Cl)cc2)c([N+](=O)[O-])c1,active: 7.61%
15,CNc1ccccc1.O=[N+]([O-])c1cc([N+](=O)[O-])c(O)c([N+](=O)[O-])c1,inactive: 103%
16,CCOP(=O)(CC)OCC,inactive: 93.1%

row,SMILES,growth
1,O=[N+]([O-])c1cc([N+](=O)[O-])c(O)c([N+](=O)[O-])c1.c1ccnnc1,inactive: 96.9%
2,CCCOP(=S)(Cl)OCCC,inactive: 99.3%
3,CN(C)CCS,inactive: 110% and inactive: 106%
4,CCN(CC)CCS,inactive: 104%
5,CN(CCCl)CCCCCCCl,inactive: 92.8%
6,Cc1ccc(Nc2c([N+](=O)[O-])cc([N+](=O)[O-])cc2[N+](=O)[O-])cc1,inactive: 72%
7,CN1CCN(CCOC(=O)C(O)(c2ccccc2)c2ccccc2)CC1,inactive: 105%
8,NN/C(N)=N/[N+](=O)[O-],inactive: 105%
9,CP(=S)(Cl)N(CCCl)CCCl (stereo unspecified),inactive: 88.7%
10,CC[N+](C)(CC)Cc1cc(Cc2ccccc2)ccc1OC(=O)N(C)C,inactive: 99.2%
11,Clc1ccccc1SCCBr,inactive: 104%
12,CP(=O)(OCCCCl)N(CCCl)CCCl (stereo unspecified),inactive: 96.8%
13,O=[N+]([O-])c1cccc([N+](=O)[O-])c1O,inactive: 101%
14,COC(=O)C(O)(c1ccccc1)c1ccccc1,inactive: 102%
15,Cc1c([N+](=O)[O-])c(C)c([N+](=O)[O-])c(Nc2c([N+](=O)[O-])c(C)c([N+](=O)[O-])c(C)c2[N+](=O)[O-])c1[N+](=O)[O-],active: 4.49%
